Assay results: article PMC9376960, “Ruthenium(II)–Tris-pyrazolylmethane Complexes Inhibit Cancer Cell Growth by Disrupting Mitochondrial Calcium Homeostasis” (Journal of Medicinal Chemistry, 2022)

System: HCT116 cells
Test: Mitochondrial Tox-Glo assay (oxidative phosphorylation)
Settings: 90 min; glucose-containing or galactose-supplemented medium

SMILES: CCCCCC[C@H]1C(=O)O[C@H](C)[C@H](NC(=O)c2cccc(NC=O)c2O)C(=O)O[C@@H](C)[C@@H]1OC(=O)CC(C)C
- effect on ATP production/synthesis: significantly decreased ATP production
